In patent US20260028382A1, “IMMUNOGENIC PEPTIDES AND THEIR USES IN CANCER DIAGNOSIS AND THERAPY” (The Chinese University of Hong Kong, priority 2024, published 2026):

Test system: CD8+ T cells
Assay: IFN-γ ELISpot assay of peptide immunogenicity (peptide-pulsed DC:CD8+ T cell co-culture)
Type: cell-based, human
Settings: pan-DCs loaded with peptide co-cultured with autologous CD8+ T cells for 24 hours; six healthy donors
Excerpt: We obtained peripheral mononuclear cells (PBMCs) from healthy donor buffy coat samples via density gradient centrifugation. We utilized QIAamp DNA Blood Kits (Qiagen) to isolate DNA for HLA typing with LinkSeq™ HLA-ABCDRDQDP+ 384 Kit (One Lambda) on a QuantStudio™ 7 Flex Real-Time PCR System. Human T and dendritic cells (DCs) were enriched from PBMCs using a CD8 cell isolation kit and Pan-DC enrichment kit (Miltenyi Biotec), respectively, and subsequently cultured in RPMI-1640 medium (Life Technologies) supplemented with 10% FBS and 100 U/mL of Penicillin-Streptomycin.
Dendritic cells (DCs) were pulsed with a 10 μg mL^−1 peptide concentration at a cell density of 10^5 cells/mL for 4 hours at 37° C. Following this, the DCs were mixed with autologous CD8+ T cells at a DC:T cell ratio of 1:10. […] The secreted IFN-γ signal was detected using the ELISpot Plus Human IFN-γ (ALP) kit (Mabtech). […]
We utilized ELISpot assay, which quantifies cytokine IFN-γ releasing by CD8^+ T lymphocytes isolated from PBMCs of healthy subjects, to verify the immunogenic potential of candidate peptides. […] Specifically, we chose p2 due to its origin from an extended 5′-UTR and its tumor-specificity based on short-read data. Additionally, we included p9 as it represents a tumor-specific frame-shift product with validation from long-read sequencing. […]

## SLLMWITQV [NY-ESO-1, positive control peptide in the ELISpot assay]
  T cell immune response (IFN-γ secretion) compared to the unstimulated control: significant T cell immune response in five out of six donor samples
